The experiment deals with T1, KDM4A-F185A (Homo sapiens, UniProt O75164, F185A).
T1 sequence (O75164 142-308 F185A limits assumed): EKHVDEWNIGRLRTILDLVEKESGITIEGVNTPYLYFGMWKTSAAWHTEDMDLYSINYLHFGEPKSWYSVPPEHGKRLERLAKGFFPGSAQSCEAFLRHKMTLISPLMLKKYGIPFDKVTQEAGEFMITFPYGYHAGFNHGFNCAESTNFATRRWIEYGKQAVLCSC
Conditions: H3K9me3 demethylation, saturating peptide, 2OG as cofactor.

Read-outs that look alike come from different tables or passages of the source.

Consider `O=C(O)CCC(=O)C(=O)O` [compound 1, 2-oxoglutarate], for which the kcat (listed as 2OG) is given as 0.19 ± 0.01 min^–1 and the kcat (listed as 2OG 1) came out at 0.186±0.008 min^–1.

(Values after paper PMC11783601, “Analogue-Sensitive Inhibition of Histone Demethylases Uncovers Member-Specific Function in Ribosomal Protein Synthesis” (Journal of the American Chemical Society, 2025).)
